{
  "source": "patent US20210319872A1",
  "about": "“DRUG AND DEVICE COMBINATION PRODUCTS WITH IMPROVED SAFETY AND EFFICACY PROFILES” (priority 2016, published 2021)",
  "origin": "cited, not measured here",
  "conditions": "in vivo",
  "data": [
    {"smiles": "OCCOCCN1CCN(C2=Nc3ccccc3Sc3ccccc32)CC1", "note": "[Seroquel (Quetiapine)]", "values": [
      {"measurement": "Increased diastolic arterial pressure", "value": "40.6%), Increased systolic arterial pressure (Pediatric, 15.2%),"},
      {"measurement": "Increased systolic arterial pressure", "value": "40.6%), Increased systolic arterial pressure (Pediatric, 15.2%),"}
    ]}
  ]
}
